In patent publication US20130231292A1, “Synergistic anti-proliferation activity of TAS-108 with mTOR inhibitors against cancer cells” (priority 2012, published 2013):

What was measured:
[1] = test system: 60 cancer cell lines of different tissues of origin; test: Non-bias 5x4 checkerboard combination screen of TAS108 with 30 chemotherapeutic agents
MCF7 = test: Combination screen of TAS-108 with a second compound, CellTiter-Glo; details: MCF7, in combination with TAS-108
T-47D = test: as above; details: in combination with TAS-108
[2] = test system: human mammary carcinoma cell lines; test: Combination screen of TAS-108 with a second compound, all six breast lines; details: number of the six breast cell lines with synergy, in combination with TAS-108
BT-549 = test: Combination screen of TAS-108 with a second compound, CellTiter-Glo; type: cell-based, human
MDA-MB-231 = test: as above; details: MDA-MB-231, in combination with TAS-108
MDA-MB-468 = test: as above; details: MDA-MB-468, in combination with TAS-108
HS 578T = test: as above; details: in combination with TAS-108

Compound: COc1nc(N)nc2c1ncn2[C@@H]1O[C@H](CO)[C@@H](O)[C@@H]1O [Nelarabine]
- ES: synergistic effect size [1]: −0.003

Compound: Nc1nc(Cl)nc2c1ncn2[C@@H]1O[C@H](CO)[C@@H](O)[C@@H]1F [Clofarabine]
- ES: synergistic effect size [1]: 0.009

Compound: Nc1nc(Cl)nc2c1ncn2[C@H]1C[C@H](O)[C@@H](CO)O1 [Cladribine]
- ES: synergistic effect size [1]: −0.018

Compound: CS(=O)(=O)CCNCc1ccc(-c2ccc3ncnc(Nc4ccc(OCc5cccc(F)c5)c(Cl)c4)c3c2)o1 [Lapatinib]
- Synergistic effect of TAS 108 paired with compound (MCF7): N
- Synergistic effect of TAS 108 paired with compound (T-47D): N
- Synergy # [2]: 0

Compound: CC1=C(/C=C/C(C)=C/C=C/C(C)=C/C(=O)O)C(C)(C)CCC1 [Tretinoin]
- ES: synergistic effect size [1]: 0

Compound: CCN(CC)CCNC(=O)c1c(C)[nH]c(/C=C2\C(=O)Nc3ccc(F)cc32)c1C [Sunitinib]
- Synergistic effect of TAS 108 paired with compound (BT-549): N
- Synergistic effect of TAS 108 paired with compound (MCF7): N
- Synergistic effect of TAS 108 paired with compound (MDA-MB-231): N
- Synergistic effect of TAS 108 paired with compound (MDA-MB-468): N
- Synergistic effect of TAS 108 paired with compound (T-47D): N
- Synergy # [2]: 0

Compound: C#Cc1cccc(Nc2ncnc3cc(OCCOC)c(OCCOC)cc23)c1 [Erlotinib]
- Synergistic effect of TAS 108 paired with compound (HS 578T): N
- Synergistic effect of TAS 108 paired with compound (MCF7): N
- Synergistic effect of TAS 108 paired with compound (MDA-MB-231): N
- Synergistic effect of TAS 108 paired with compound (MDA-MB-468): N
- Synergistic effect of TAS 108 paired with compound (T-47D): N

Compound: Cc1nc(Nc2ncc(C(=O)Nc3c(C)cccc3Cl)s2)cc(N2CCN(CCO)CC2)n1 [Dasatinib]
- ES: synergistic effect size [1]: 0.022
